A selection: hits, their analogues and other compounds. The true share with any hit is near 16%.
DT40 TDP1 CPT: DT40-hTDP1 cell growth loss with CPT; chicken DT40 Tdp1-/-;hTDP1 cells + 20 nM CPT, ATP luminescence, 48 h; Potency, µM (doses to about 46.2 µM), for inactives: top-dose activity change, negative = growth inhibition, actives largely listed as inhibitors; 420,000 tested, 12% active; also: potency is read from the fitted curve at half-maximal effect; % is scaled to controls: 0 for no effect and ±100 for the full control effect; nearly all actives have a fitted effect of over 55% in size
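Chicken DT40 Tdp1-/- cells complemented with human TDP1, 400 cells/well, exposed to compounds plus 20 nM camptothecin for at least 48 h at 37 C; viability read as ATP content by CellTiter-Glo luminescence.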
uPA surface inh: blocks generation of uPA at the cell surface; 330,000 tested, 0.31% active; cell surface uPA generation assay, qHTS; AID 540303; Potency, µM (top dose mostly 38.3 µM), for inactives: at the top dose activity change, negative = inhibition, usual class: inhibitors; active = well fitted inhibition curve with a large enough effect; inconclusive = small, poorly fitted or top-dose-only effect; inactive = no such curve, though single readings can be large or run the other way; tested in mouse RAW 264.7 cells; also: potency is read from the fitted curve at half-maximal effect; % is scaled to controls: 0 for no effect and ±100 for the full control effect; nearly all actives have a fitted effect of over 55% in size
DT40 TDP1 no CPT: qHTS for Inhibitors of human tyrosyl-DNA phosphodiesterase 1 (TDP1): qHTS in cells in absence of CPT; DT40 Tdp1-/- hTDP1 cells, no CPT, ATP luminescence, 48 h; 420,000 tested, 15% active; Potency, µM (titrated, usually from 46.2 µM), for the others: at the highest dose activity change, negative = growth inhibition, actives largely listed as inhibitors; also: potency is read from the fitted curve at half-maximal effect; % is scaled to controls: 0 for no effect and ±100 for the full control effect; nearly all actives have a fitted effect of over 55% in size
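Seeded 400 DT40-hTDP1 cells/well (vehicle DMSO, no 20 nM CPT); pinned compounds; ≥48 hr at 37 °C; CellTiter-Glo luminescence as viability measure.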
TDP1 block: inhibitors of human tyrosyl-DNA phosphodiesterase TDP1. recombinant TDP1, AlphaScreen DNA substrate cleavage. Potency, µM (titrated, usually from 130 µM), inactives show at the highest dose activity change, negative = inhibition, hits mostly inhibitors. 350,000 tested, 0.28% active. AID 485290; also: potency is read from the fitted curve at half-maximal effect; % is scaled to controls: 0 for no effect and ±100 for the full control effect; nearly all actives have a fitted effect of over 40% in size
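Tdp1 1 nM final; 15 min RT w/ cpd; substrate 15 nM, 5 min; beads 10 ug/ml, 10 min; AlphaScreen read. Neg ctrl: no enzyme.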
miR-21 reporter: miR-21 reporter, rising signal; HeLa miR-21 FLuc reporter, luciferase, 48 h; Potency, µM (doses to about 38.3 µM), for inactives: at the highest dose reporter change, positive = more light; 340,000 tested, under 10 active; AID 2288; active = well fitted rising curve with a large enough effect; inconclusive = small, poorly fitted or top-dose-only effect; inactive = no such curve, though single readings can be large or run the other way;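 further: % of control where 0% means no effect; miR-21 action dims this reporter so a rising signal means less miR-21 action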
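Compounds were titrated across several concentrations (up to approximately 40 uM) and incubated 48 hours with HeLa miR-21-FLuc reporter cells (miR-21 target sequence downstream of FLuc, endogenous miR-21). Readout was firefly luciferase luminescence after lytic detection reagent.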
Active calls of the source: *; [ ] = remark or other dose. Unless noted, calls follow the shape of the dose curve; as a rule, active = well fitted curve in the direction sought with a large enough effect; inconclusive = small, poorly fitted or top-dose-only effect, or another doubt; inactive = no such curve, though single readings can be large; an effect the other way counts as inactive or inconclusive.

O=C(Nc1ccc(C(F)(F)F)cc1)C1CCC(CNS(=O)(=O)c2cccc3nsnc23)CC1 (configuration not stated) was read as DT40 TDP1 CPT -30%, DT40 TDP1 no CPT inconclusive, TDP1 block 7% and miR-21 reporter 2%.
For CCCC(=O)Nc1nnc(-c2ccc3c(c2)OCO3)s1 the results were DT40 TDP1 CPT -20%, uPA surface inh -7%, DT40 TDP1 no CPT -19%, TDP1 block -1% and miR-21 reporter -15%.
Screening Cc1ccc(-n2nc3c(c2NC(=O)c2cc4ccccc4o2)CS(=O)(=O)C3)cc1 returned DT40 TDP1 CPT -21%, uPA surface inh -2%, DT40 TDP1 no CPT -26%, TDP1 block 5% and miR-21 reporter 4%.
`CC(=O)OC1C=C[C@]2(C)C(CC(OC(C)=O)[C@@]3(C)C4=CC(=O)OC(c5ccoc5)[C@]4(C)CCC23)C1(C)C` (some centres not stated) gave DT40 TDP1 CPT inconclusive, DT40 TDP1 no CPT 21µM* and TDP1 block 10%[56.1 µM].
CC(=O)OC1CC[C@]2(C)C(CC(OC(C)=O)[C@@]3(C)C4=CC(=O)OC(c5ccoc5)[C@]4(C)CCC23)C1(C)C (some centres not stated) was read as DT40 TDP1 CPT inconclusive, DT40 TDP1 no CPT 21µM* and TDP1 block 10%[56.1 µM].
`Cc1cccc(N(CC(=O)NC(C)(C)C)C(=O)CS(=O)CC(=O)Nc2ccc3c(c2)OCO3)c1` (configuration not stated) gave DT40 TDP1 CPT 7%, uPA surface inh -23%, DT40 TDP1 no CPT -3%, TDP1 block 2% and miR-21 reporter -4%.
For c1ccc(CN2CCN(c3ncccn3)CC2)cc1 the results were DT40 TDP1 CPT 6%, uPA surface inh -1%, DT40 TDP1 no CPT 3% and miR-21 reporter 1%.
For c1ccc(CN2CCN(c3nc(-c4ccccc4)nc(-n4ccnc4)n3)CC2)cc1 the results were DT40 TDP1 CPT 16µM*, DT40 TDP1 no CPT 18µM*, TDP1 block 6% and miR-21 reporter 9%.
`CN(c1ccccc1)c1nc(N2CCCC2)nc(-n2ccnc2)n1` gave DT40 TDP1 CPT -26%, uPA surface inh -3%, DT40 TDP1 no CPT -21%, TDP1 block 9% and miR-21 reporter 15%.
c1ccc(N(c2ccccc2)c2nc(N3CCCC3)nc(-n3ccnc3)n2)cc1 was read as DT40 TDP1 CPT inconclusive, DT40 TDP1 no CPT 26µM*, TDP1 block 0% and miR-21 reporter 1%.
c1ccc(-c2nc(-n3ccnc3)nc(-n3ccnc3)n2)cc1 was read as DT40 TDP1 CPT 21µM*, uPA surface inh -12%, DT40 TDP1 no CPT 10µM*, TDP1 block 0% and miR-21 reporter 16%.
Screening CC1(CCc2ccccc2)NC(=O)N(CC(=O)Nc2ccc3c(c2)OCCO3)C1=O (configuration not stated) returned DT40 TDP1 CPT -15%, uPA surface inh -2%, DT40 TDP1 no CPT 0%, TDP1 block 1% and miR-21 reporter 5%.
`Cc1nc2ccc(Br)cc2c(-c2ccccc2)c1C(=O)O` gave DT40 TDP1 CPT -25%, uPA surface inh -2%, DT40 TDP1 no CPT inconclusive and miR-21 reporter -3%.
`CCn1cc(/C=C(\NC(=O)c2ccc(OC)c(OC)c2)C(=O)N2CCN(C)CC2)c2ccccc21` gave DT40 TDP1 CPT inconclusive, uPA surface inh 3%, DT40 TDP1 no CPT 8%, TDP1 block 6% and miR-21 reporter -6%.
CC(NCc1cc(Br)ccc1OCC(N)=O)C12CC3CC(CC(C3)C1)C2 (configuration not stated) was read as DT40 TDP1 CPT inconclusive, uPA surface inh -27%, DT40 TDP1 no CPT 18µM* and miR-21 reporter 15%.

Among those listed so far, 4 have sulfur:
O=C(Nc1ccc(C(F)(F)F)cc1)C1CCC(CNS(=O)(=O)c2cccc3nsnc23)CC1 (configuration not stated) was read as DT40 TDP1 CPT -30%, DT40 TDP1 no CPT inconclusive, TDP1 block 7% and miR-21 reporter 2%.
For CCCC(=O)Nc1nnc(-c2ccc3c(c2)OCO3)s1 the results were DT40 TDP1 CPT -20%, uPA surface inh -7%, DT40 TDP1 no CPT -19%, TDP1 block -1% and miR-21 reporter -15%.
Screening Cc1ccc(-n2nc3c(c2NC(=O)c2cc4ccccc4o2)CS(=O)(=O)C3)cc1 returned DT40 TDP1 CPT -21%, uPA surface inh -2%, DT40 TDP1 no CPT -26%, TDP1 block 5% and miR-21 reporter 4%.
`Cc1cccc(N(CC(=O)NC(C)(C)C)C(=O)CS(=O)CC(=O)Nc2ccc3c(c2)OCO3)c1` (configuration not stated) gave DT40 TDP1 CPT 7%, uPA surface inh -23%, DT40 TDP1 no CPT -3%, TDP1 block 2% and miR-21 reporter -4%.

The list goes on:
Screening COc1cc(CNc2ccc(N3CCCC3)cc2)ccc1OCc1ccccc1 returned DT40 TDP1 CPT 1.6µM*, uPA surface inh -3%, DT40 TDP1 no CPT 2.1µM*, TDP1 block 4% and miR-21 reporter -36%.
`COc1cc(CNC23CC4CC(CC(C4)C2)C3)ccc1OCc1ccccc1` gave DT40 TDP1 CPT 29µM*, uPA surface inh -2%, DT40 TDP1 no CPT 21µM*, TDP1 block 3% and miR-21 reporter -16%.
Screening COc1cc(CNCc2cccs2)ccc1OCc1ccccc1 returned DT40 TDP1 CPT -29%, uPA surface inh -16%, DT40 TDP1 no CPT -19%, TDP1 block 4% and miR-21 reporter -27%.
COc1cc(CNc2ccc(N3CCCCC3)cc2)ccc1OCC(=O)NC(C)(C)C was read as DT40 TDP1 CPT inconclusive, uPA surface inh -6%, DT40 TDP1 no CPT 23µM*, TDP1 block 11% and miR-21 reporter -7%.
Screening COc1ccc(CNc2ccc(N3CCN(C(C)=O)CC3)cc2)cc1OC returned uPA surface inh -7%.
For Cn1ccnc1Sc1ccc(C=O)cc1[N+](=O)[O-] the results were DT40 TDP1 CPT 8%, uPA surface inh -1%, DT40 TDP1 no CPT inconclusive, TDP1 block 0% and miR-21 reporter 1%.
For Cc1ccc(NC(=O)COC(=O)C2(CC(=O)NC(C)(C)C)CCCC2)cc1C the results were DT40 TDP1 CPT inconclusive, uPA surface inh -2%, DT40 TDP1 no CPT inconclusive and TDP1 block 2%.
`C=CCOc1c(CNc2ccc(S(N)(=O)=O)cc2)cccc1OC` gave DT40 TDP1 CPT inconclusive, uPA surface inh -2%, DT40 TDP1 no CPT 18µM*, TDP1 block 5% and miR-21 reporter 1%.
Screening COc1cc(CNc2ccc(N3CCCC3)cc2)ccc1OCc1ccccc1F returned DT40 TDP1 CPT 3.7µM*, uPA surface inh -2%, DT40 TDP1 no CPT 4.6µM*, TDP1 block 5% and miR-21 reporter -40%.
`COc1ccc(NCc2ccc(OC)c(OC)c2)cc1` gave TDP1 block 9% and miR-21 reporter -23%.
`COc1cc(CNC(C)(C)CO)ccc1OCC(=O)NC(C)(C)C` gave DT40 TDP1 CPT 9%, uPA surface inh 0%, DT40 TDP1 no CPT 4%, TDP1 block 3% and miR-21 reporter -8%.
For COc1cc(CNc2ccc(S(N)(=O)=O)cc2)ccc1OCc1ccccc1F the results were DT40 TDP1 CPT 18µM*, uPA surface inh -8% and DT40 TDP1 no CPT inconclusive.
`CCNCc1ccc(OCc2ccccc2F)c(OC)c1` gave DT40 TDP1 CPT -27%, uPA surface inh -104%, DT40 TDP1 no CPT inconclusive, TDP1 block -1% and miR-21 reporter -28%.
Screening COc1cc(CNC(C)C23CC4CC(CC(C4)C2)C3)ccc1OCC(=O)NC(C)(C)C (configuration not stated) returned DT40 TDP1 CPT -107%, uPA surface inh -1%, DT40 TDP1 no CPT 21µM* and miR-21 reporter 6%.

Screening results: PubChem, National Center for Advancing Translational Sciences (NCATS)
